The source of these data is patent publication US20220339116A1, “LIPID NANOPARTICLES AS ORAL VEHICLES OF IMMUNOTHERAPY” (The Johns Hopkins University, priority 2019, published 2022).

The test has as its system C57BL/6 to BALB/c heart transplants. The test is described as follows: Full MHC mismatch mouse heart transplantation model. Format: in vivo. The text has this:
FIGS. 1A-1B. ECoB promotes transplant survival via accumulation of Treg and inhibition of TH1 cells. TA, Survival curves of B6 to BALB/c heart transplants subjected to the treatment indicated. CTLA4-Ig administered on days 0, 2, 4, and 6. Tofa dosed daily from POD −1 to POD9. n=4-5 for each group. […] 1B, Profile of graft infiltrating CD4 T cells and of the production of IFN-γ by splenic T cells stimulated ex vivo with PMA/Inonmycin. Representative of 3 recipients.
The feasibility of combining CTLA4-Ig with a short-course Tofa administration in a full MHC mismatch (C57BL/6 to BALB/c) mouse heart transplantation model was tested (FIG. 1A). […] This improvement was evident even in mice receiving hearts kept ischemic for 4 h before transplantation—a more clinically relevant scenario—where CTLA4-Ig efficacy is undermined by early accumulation of inflammatory mediators^67 (MST untreated: 9d, CTLA4-Ig only: 26.5d, Tofa+CTLA4-Ig: 150d).

“CTLA4-Ig: a recombinant version of the co-regulatory molecule CTLA4 that sequesters the CD28 ligands CD80 and CD86; abatacept”: the “MST (heart transplant survival)” value is, setting by setting: (C57BL/6 to BALB/c, CTLA4-Ig on days 0, 2, 4, 6, Tofa short course (10 days)) 36 days; (hearts kept ischemic for 4 h before transplantation) 26.5 days.
